Measured values: paper PMC3335988 (Neurochemistry international, 2011)
Structures can show the parent of a compound that is named as a salt.

Sequences of proteins named here, by UniProt entry; tags and fusion partners are left off. Residues count along the entry.
UniProt Q00959, 23-1464: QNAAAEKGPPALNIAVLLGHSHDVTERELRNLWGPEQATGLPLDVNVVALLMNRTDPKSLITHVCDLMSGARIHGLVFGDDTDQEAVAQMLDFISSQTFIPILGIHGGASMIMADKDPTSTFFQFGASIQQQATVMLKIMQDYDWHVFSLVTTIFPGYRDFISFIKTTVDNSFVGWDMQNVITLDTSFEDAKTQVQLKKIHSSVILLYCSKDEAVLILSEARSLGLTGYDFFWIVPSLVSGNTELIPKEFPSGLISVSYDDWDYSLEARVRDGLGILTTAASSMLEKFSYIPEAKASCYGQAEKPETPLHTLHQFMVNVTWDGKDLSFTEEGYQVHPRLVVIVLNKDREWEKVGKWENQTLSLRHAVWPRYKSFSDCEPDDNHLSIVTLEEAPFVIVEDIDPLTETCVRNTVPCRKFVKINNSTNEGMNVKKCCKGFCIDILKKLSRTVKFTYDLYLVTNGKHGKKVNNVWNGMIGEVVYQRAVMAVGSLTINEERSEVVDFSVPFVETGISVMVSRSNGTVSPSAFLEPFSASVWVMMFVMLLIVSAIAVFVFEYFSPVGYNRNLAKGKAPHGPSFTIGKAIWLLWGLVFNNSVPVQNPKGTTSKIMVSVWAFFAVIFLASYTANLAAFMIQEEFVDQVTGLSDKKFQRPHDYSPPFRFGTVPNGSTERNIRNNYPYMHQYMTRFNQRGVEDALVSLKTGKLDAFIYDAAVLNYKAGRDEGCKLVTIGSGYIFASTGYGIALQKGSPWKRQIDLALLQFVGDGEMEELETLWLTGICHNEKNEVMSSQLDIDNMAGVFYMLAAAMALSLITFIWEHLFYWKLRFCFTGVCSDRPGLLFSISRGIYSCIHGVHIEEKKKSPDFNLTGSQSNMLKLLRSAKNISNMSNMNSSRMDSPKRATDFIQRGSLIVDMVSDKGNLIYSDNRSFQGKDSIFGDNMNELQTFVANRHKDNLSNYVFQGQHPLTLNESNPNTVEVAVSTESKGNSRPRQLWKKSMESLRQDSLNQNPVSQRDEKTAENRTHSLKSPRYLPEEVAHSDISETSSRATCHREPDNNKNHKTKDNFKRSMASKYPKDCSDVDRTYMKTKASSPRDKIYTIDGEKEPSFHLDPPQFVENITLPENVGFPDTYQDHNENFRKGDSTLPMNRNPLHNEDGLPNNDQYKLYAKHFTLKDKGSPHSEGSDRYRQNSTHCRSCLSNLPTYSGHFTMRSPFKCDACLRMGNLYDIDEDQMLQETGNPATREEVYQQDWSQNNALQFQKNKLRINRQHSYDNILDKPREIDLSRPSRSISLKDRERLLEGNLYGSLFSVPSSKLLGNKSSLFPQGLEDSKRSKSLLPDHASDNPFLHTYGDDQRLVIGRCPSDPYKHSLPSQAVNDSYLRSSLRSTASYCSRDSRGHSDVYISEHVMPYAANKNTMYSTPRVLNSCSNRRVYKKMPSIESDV
UniProt Q00960, 27-1482: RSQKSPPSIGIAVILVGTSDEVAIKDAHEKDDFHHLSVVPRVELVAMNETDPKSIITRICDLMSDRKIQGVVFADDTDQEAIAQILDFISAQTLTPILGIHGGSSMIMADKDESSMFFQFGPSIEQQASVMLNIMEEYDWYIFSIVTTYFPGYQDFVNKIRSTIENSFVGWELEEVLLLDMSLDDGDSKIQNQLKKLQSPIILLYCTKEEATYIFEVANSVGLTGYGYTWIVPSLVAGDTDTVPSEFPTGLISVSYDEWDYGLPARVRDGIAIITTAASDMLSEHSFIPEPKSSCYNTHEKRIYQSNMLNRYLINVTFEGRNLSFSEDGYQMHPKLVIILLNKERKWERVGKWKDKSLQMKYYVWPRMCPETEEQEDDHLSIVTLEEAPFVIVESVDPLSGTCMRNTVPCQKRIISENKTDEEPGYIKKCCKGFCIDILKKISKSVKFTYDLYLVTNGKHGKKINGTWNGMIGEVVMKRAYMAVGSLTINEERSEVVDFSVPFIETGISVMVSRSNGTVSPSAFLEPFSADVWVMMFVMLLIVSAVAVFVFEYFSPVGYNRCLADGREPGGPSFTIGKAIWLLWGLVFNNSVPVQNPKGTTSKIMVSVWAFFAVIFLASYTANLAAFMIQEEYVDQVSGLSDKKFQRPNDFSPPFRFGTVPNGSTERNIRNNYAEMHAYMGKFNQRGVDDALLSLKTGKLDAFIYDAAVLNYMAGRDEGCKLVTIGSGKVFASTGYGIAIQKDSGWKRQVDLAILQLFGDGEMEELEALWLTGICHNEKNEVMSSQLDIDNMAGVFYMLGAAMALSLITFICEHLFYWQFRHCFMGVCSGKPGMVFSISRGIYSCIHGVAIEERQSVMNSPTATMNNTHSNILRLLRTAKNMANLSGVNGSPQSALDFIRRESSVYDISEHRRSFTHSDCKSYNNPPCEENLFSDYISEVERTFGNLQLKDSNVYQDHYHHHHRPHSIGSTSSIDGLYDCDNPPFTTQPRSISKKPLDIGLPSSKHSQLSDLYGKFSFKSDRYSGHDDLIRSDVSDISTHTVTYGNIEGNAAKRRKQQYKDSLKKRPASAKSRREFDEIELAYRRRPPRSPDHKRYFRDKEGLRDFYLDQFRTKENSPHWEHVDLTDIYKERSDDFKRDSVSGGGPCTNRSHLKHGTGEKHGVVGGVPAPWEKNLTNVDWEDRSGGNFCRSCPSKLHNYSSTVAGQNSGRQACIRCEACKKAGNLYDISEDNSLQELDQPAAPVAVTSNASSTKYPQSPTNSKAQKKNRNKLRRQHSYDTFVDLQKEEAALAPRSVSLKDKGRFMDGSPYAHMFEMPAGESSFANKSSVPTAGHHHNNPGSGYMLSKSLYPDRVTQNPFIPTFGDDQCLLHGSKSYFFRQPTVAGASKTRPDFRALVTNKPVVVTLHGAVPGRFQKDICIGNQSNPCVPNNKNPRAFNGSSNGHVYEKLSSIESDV
UniProt Q00961, 20-1237: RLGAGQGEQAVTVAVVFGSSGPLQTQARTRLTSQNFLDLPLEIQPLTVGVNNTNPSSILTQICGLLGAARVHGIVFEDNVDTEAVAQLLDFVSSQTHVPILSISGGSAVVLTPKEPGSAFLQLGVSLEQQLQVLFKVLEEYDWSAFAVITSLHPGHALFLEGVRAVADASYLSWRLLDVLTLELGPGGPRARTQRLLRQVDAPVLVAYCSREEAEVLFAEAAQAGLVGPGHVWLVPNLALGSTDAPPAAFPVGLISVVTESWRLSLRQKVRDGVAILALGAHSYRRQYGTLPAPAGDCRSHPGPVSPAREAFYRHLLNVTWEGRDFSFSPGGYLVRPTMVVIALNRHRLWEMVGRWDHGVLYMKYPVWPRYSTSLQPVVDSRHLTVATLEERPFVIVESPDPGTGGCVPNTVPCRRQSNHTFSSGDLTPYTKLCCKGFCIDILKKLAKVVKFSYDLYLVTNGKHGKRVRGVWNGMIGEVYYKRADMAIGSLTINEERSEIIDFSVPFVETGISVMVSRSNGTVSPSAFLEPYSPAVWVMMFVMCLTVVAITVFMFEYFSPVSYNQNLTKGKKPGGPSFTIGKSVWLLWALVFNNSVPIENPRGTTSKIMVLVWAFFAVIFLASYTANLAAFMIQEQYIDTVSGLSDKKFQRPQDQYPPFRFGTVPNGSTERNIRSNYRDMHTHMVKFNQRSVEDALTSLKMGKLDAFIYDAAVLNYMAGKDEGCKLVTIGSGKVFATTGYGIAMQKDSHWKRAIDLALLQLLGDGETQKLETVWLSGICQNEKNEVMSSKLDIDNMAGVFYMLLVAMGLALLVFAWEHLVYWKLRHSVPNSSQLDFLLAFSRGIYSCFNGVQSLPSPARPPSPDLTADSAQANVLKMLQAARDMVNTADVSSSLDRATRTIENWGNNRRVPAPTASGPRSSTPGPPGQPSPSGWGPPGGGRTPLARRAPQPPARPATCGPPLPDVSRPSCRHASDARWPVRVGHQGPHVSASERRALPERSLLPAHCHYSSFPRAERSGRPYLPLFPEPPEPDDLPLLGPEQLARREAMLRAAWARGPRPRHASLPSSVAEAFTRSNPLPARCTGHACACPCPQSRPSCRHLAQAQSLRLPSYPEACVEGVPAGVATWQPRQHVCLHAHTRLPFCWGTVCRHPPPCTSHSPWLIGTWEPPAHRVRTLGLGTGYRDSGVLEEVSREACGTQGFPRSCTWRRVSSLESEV
UniProt Q62645, 28-1323: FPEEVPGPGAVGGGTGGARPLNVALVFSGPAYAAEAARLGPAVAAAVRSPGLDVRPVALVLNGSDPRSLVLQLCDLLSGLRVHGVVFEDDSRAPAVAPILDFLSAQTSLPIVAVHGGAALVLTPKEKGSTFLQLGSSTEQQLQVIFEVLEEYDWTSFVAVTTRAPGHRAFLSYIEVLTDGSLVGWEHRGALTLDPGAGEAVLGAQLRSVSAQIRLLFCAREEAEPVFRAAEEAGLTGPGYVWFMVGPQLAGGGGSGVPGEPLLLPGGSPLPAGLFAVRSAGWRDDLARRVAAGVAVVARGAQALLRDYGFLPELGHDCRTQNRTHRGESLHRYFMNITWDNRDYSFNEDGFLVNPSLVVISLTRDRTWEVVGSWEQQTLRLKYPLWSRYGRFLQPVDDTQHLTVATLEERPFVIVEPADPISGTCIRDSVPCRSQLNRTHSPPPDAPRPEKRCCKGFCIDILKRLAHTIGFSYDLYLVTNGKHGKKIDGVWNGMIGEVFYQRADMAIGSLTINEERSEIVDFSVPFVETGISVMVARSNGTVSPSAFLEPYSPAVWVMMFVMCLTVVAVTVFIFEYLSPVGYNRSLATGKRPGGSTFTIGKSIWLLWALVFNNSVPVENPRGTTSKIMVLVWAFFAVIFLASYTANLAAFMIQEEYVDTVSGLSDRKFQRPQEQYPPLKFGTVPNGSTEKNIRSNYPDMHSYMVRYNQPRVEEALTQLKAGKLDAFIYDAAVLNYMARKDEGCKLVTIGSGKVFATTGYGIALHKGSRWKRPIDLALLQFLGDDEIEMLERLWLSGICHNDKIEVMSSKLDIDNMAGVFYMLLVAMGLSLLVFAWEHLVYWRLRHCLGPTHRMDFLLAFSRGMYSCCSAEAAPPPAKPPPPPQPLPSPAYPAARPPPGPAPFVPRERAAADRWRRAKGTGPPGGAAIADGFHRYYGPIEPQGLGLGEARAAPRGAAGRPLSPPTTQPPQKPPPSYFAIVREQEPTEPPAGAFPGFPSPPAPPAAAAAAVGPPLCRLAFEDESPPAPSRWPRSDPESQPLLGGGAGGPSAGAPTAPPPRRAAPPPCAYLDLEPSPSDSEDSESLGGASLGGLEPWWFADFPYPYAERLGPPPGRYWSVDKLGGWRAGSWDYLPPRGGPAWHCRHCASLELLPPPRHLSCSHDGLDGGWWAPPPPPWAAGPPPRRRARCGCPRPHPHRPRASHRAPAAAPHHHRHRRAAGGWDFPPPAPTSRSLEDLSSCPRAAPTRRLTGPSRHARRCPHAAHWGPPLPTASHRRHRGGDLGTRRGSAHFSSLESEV

Assays:
Type in all cases: cell-based
Conditions in all cases: 100 µM glutamate plus 30 µM glycine, -40 mV
[1] = molecular target: rat GluN1/GluN2A (Rattus norvegicus, UniProt P35439+Q00959); assay: Two-electrode voltage-clamp recordings, recombinant receptors in Xenopus oocytes
[2] = molecular target: rat GluN1/GluN2B (Rattus norvegicus, UniProt P35439+Q00960)
[3] = molecular target: rat GluN1/GluN2C (Rattus norvegicus, UniProt P35439+Q00961)
[4] = molecular target: rat GluN1/GluN2D (Rattus norvegicus, UniProt P35439+Q62645)
[5] = molecular target: human GluN1/GluN2B (Homo sapiens, UniProt Q05586+Q13224)

Row | nH (Hill slope, inhibition) [5] | SMILES | nH (Hill slope, inhibition) [1] | nH (Hill slope, inhibition) [2] | nH (Hill slope, inhibition) [3] | nH (Hill slope, inhibition) [4]
1 |  | CC12CC3CC(C)(C1)CC(N)(C3)C2 [memantine, memantine hydrochloride] | 1.1 | 1.4 | 0.9 | 1.0
2 | 1.3 | C[C@@H](CN1CCC(Cc2ccccc2)CC1)[C@@H](O)c1ccc(O)cc1.O=C(O)/C=C\C(=O)O [Ro 25–6981, (αR,βS)-α-(4-hydroxyphenyl)-β-methyl-4-(phenylmethyl)-1-piperidinepropanol maleate] |  | 1.3 |  | 
